# According to ChEMBL document CHEMBL1158439, “Non-isotopic dual parameter competition assay suitable for high-throughput screening of histone deacetylases” (Bioorg Med Chem Lett, 2009):
# Legend:
# Set-up in all cases: species or system Alcaligenaceae bacterium FB188
# [1] = molecular target: T1, Histone deacetylase-like amidohydrolase (Alcaligenes sp. (strain DSM 11172) (Bordetella sp. (strain FB188)), UniProt Q70I53); assay: Binding affinity to Bordetella / Alcaligenes strain FB188 HDAC by FRET assay
# T1 sequence (Q70I53 whole entry): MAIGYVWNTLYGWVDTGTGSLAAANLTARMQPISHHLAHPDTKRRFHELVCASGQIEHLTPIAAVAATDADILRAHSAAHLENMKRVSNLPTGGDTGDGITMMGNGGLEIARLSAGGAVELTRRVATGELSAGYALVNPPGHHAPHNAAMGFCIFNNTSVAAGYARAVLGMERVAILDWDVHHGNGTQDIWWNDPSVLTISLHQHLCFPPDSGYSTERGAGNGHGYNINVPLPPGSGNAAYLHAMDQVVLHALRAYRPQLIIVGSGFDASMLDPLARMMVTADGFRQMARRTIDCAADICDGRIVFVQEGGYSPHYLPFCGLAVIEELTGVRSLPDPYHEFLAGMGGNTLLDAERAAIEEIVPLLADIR
# [2] = molecular target: T1, Histone deacetylase-like amidohydrolase (Alcaligenes sp. (strain DSM 11172) (Bordetella sp. (strain FB188)), UniProt Q70I53); assay: Displacement of Atto700-HA from Bordetella / Alcaligenes strain FB188 HDAH by fluorescence anisotropy
# [3] = molecular target: T1, Histone deacetylase-like amidohydrolase (Alcaligenes sp. (strain DSM 11172) (Bordetella sp. (strain FB188)), UniProt Q70I53); assay: Inhibition of Bordetella / Alcaligenes strain FB188 HDAH by fluorimetric assay
smiles,measurement,setting,value
O=C(CCCCCCC(=O)Nc1ccccc1)NO [VORINOSTAT],Ki,[1],1000 nM
same,Ki,[2],1300 nM
same,IC50,[3],1000 nM
